The list shows a part of the results, in another mix than the full data. Some structures show a salt or complex split into parts, the way the source records it. Calls of active or inactive are those of the source.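 Rule for the calls: active = compounds that cut the binding signal by more than half at the single screening dose; inactive = the rest.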
Each compound was assayed against Induced myeloid leukemia cell differentiation protein Mcl-1 (Homo sapiens) (UniProt Q07820) (assay: disruptors of Mcl-1 and Bid BH3 peptide – biochemical, TR-FRET, 1536-well, primary screen (AID 1021;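 note: His-tagged Mcl-1 with europium anti-His antibody binding Bid BH3 peptide; 0% = Mcl-1 plus peptide wells and 100% = peptide-only wells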)). Conditions: TR-FRET Mcl-1/Bid-Dy647 peptide binding, at 21.7 µM, hits give high values.

Sequences of proteins named here, by UniProt entry; tags and fusion partners are left off.
UniProt Q07820, whole entry: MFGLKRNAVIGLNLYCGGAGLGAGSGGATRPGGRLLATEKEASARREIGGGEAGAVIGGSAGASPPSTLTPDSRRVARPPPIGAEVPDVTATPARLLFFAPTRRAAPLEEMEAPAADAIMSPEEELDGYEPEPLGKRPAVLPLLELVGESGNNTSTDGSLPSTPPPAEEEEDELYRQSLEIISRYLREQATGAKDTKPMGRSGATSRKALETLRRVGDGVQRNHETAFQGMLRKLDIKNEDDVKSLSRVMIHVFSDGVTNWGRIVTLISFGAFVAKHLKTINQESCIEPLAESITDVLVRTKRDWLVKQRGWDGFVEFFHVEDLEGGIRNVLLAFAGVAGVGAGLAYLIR

Row | SMILES | inhibition
1 | CCOP(C)(=S)SCC(=O)NC(C)C(=O)O (stereo not drawn) | inactive: -24%
2 | CCOC(=O)c1ccc(NP(C)(=O)Oc2ccc(OC)cc2)cc1 (stereo not drawn) | inactive: -37.5%
3 | CP(=O)(Nc1ccccn1)Oc1ccc(Cl)cc1 (stereo not drawn) | inactive: -4.72%
4 | CP(=O)(Oc1ccccc1)OC(c1ccccc1)C(F)(F)F (stereo not drawn) | inactive: -9.87%
5 | Cc1cccc(C)c1OP(C)(=O)Nc1ccc(SC(F)(F)F)cc1 (stereo not drawn) | inactive: -9.2%
6 | CP(=O)(Nc1ccc(SC(F)(F)F)cc1)Oc1ccc(Cl)cc1 (stereo not drawn) | inactive: 16%
7 | Cc1cc(C)cc(OP(C)(=O)Nc2ccc(SC(F)(F)F)cc2)c1 (stereo not drawn) | inactive: 26.8%
8 | CCc1ccc(OP(C)(=O)N2CCN(c3ccc([N+](=O)[O-])cc3)CC2)cc1 (stereo not drawn) | inactive: -12.2%
9 | CP(=O)(NC(=O)Nc1ccccc1)Oc1ccccc1 (stereo not drawn) | inactive: -25.6%
10 | CP(=S)(Nn1cnnc1)Oc1ccccc1 (stereo not drawn) | inactive: -0.17%
11 | COc1ccccc1OP(C)(=O)Nc1ccccc1 (stereo not drawn) | inactive: -17.9%
12 | CP(=O)(Nc1ccccc1Br)Oc1ccccc1 (stereo not drawn) | inactive: -10.6%
13 | CCOC(=O)c1ccc(NP(C)(=O)Oc2ccccc2)cc1 (stereo not drawn) | inactive: 1.74%
14 | Cc1ccc(NP(C)(=O)Oc2ccccc2)c(C)c1 (stereo not drawn) | inactive: -27.9%
15 | COc1ccccc1OP(C)(=O)Nc1ccc(C)cc1 (stereo not drawn) | inactive: -18.1%
16 | COc1ccc(OP(C)(=O)Nc2cccc(F)c2)cc1 (stereo not drawn) | inactive: -11.6%
17 | COc1ccccc1OP(C)(=O)Nc1cc(Cl)ccc1C (stereo not drawn) | inactive: -8.12%
18 | Cc1cc(C)cc(OP(C)(N)=O)c1 (stereo not drawn) | inactive: -3.05%
19 | Cc1cccc(C)c1OP(C)(N)=O (stereo not drawn) | inactive: -21.8%
20 | CC(C)(C)c1ccc(OP(C)(=O)Nc2ccc(SC(F)(F)F)cc2)cc1 (stereo not drawn) | inactive: 7.17%
21 | O=[N+]([O-])c1ccc2c(c1)C=Nc1ccccc1O2 | inactive: -15.1%

Row | SMILES | inhibition
22 | CCN(CC)CCCOC(=O)C(O)(c1ccccc1)c1ccccc1 | inactive: -7.07%
23 | CP(=O)(Nc1cccc(Br)c1)Oc1ccccc1 (stereo not drawn) | inactive: -13.7%
24 | Cc1cc(C)cc(OP(C)(=O)Nc2ccccn2)c1 (stereo not drawn) | inactive: 3.56%
25 | Cc1ccc(C)c(NP(C)(=O)Oc2ccccc2)c1 (stereo not drawn) | inactive: -10.6%
26 | COc1ccccc1OP(C)(=O)Nc1cccc(Br)c1 (stereo not drawn) | inactive: 23.6%
27 | Cc1cc(C)cc(OP(C)(=O)Nc2ccc(C)cc2C)c1 (stereo not drawn) | inactive: -34.6%
28 | CCOC(=O)c1ccc(NP(C)(=O)Oc2cc(C)cc(C)c2)cc1 (stereo not drawn) | inactive: -11%
29 | CC1=NCCc2c1[nH]c1ccccc21.O=[N+]([O-])c1cc([N+](=O)[O-])c(O)c([N+](=O)[O-])c1 | inactive: 18%
30 | O=C(O)c1cccc(Nc2c([N+](=O)[O-])cc([N+](=O)[O-])cc2[N+](=O)[O-])c1 | inactive: -62.9%
31 | COc1ccccc1OP(C)(=O)Nc1c(C)cccc1C (stereo not drawn) | inactive: -4.56%
32 | CN1CCCCC1COC(=O)C1(O)c2ccccc2CCc2ccccc21 (stereo not drawn) | inactive: -17.7%
33 | CP(=O)(Nc1ccc(SC(F)(F)F)cc1)Oc1ccccc1 (stereo not drawn) | inactive: 4.75%
34 | CCCOc1ccc(NP(C)(=O)Oc2ccc(Cl)cc2)cc1 (stereo not drawn) | inactive: -16.2%
35 | CCOC(=O)C(CC)C1=NC(C)(C)Cc2ccccc21.O=[N+]([O-])c1cc([N+](=O)[O-])c(O)c([N+](=O)[O-])c1 (stereo not drawn) | inactive: -6.3%
36 | O=[N+]([O-])c1cc([N+](=O)[O-])c(Nc2nnnn2CCO)c([N+](=O)[O-])c1 | inactive: -3.24%
37 | Cc1nc2ccc3ccccc3c2s1.O=[N+]([O-])c1cc([N+](=O)[O-])c(O)c([N+](=O)[O-])c1 | inactive: 5.49%
38 | O=[N+]([O-])c1cc([N+](=O)[O-])c(-n2nnc3ccccc32)c([N+](=O)[O-])c1 | inactive: -3.1%
39 | CP(=O)(Nc1ccc2c(c1)OCCO2)Oc1ccccc1 (stereo not drawn) | inactive: -18.5%
40 | Cc1ccccc1NP(C)(=O)Nc1ccccc1C | inactive: -17.7%
41 | CP(=O)(Nc1ccc(SC(F)(F)F)cc1)Oc1ccc(F)cc1 (stereo not drawn) | inactive: -3.53%
42 | CCOP(C)(=S)SCC(=O)NC(C)(CC)C(=O)O (stereo not drawn) | inactive: 19.2%

Row | SMILES | inhibition
43 | O=[N+]([O-])c1cc([N+](=O)[O-])c(NCC2CCS(=O)(=O)C2)c([N+](=O)[O-])c1 (stereo not drawn) | inactive: -11.1%
44 | Cc1cc(-c2cccc3ccccc23)c(C)cn1.O=[N+]([O-])c1cc([N+](=O)[O-])c(O)c([N+](=O)[O-])c1 | inactive: 1.81%
45 | O=[N+]([O-])c1ccc(OP2(=O)COCCO2)cc1 (stereo not drawn) | inactive: 9.83%
46 | COc1ccc(OP(C)(=O)Nc2cccc(Br)c2)cc1 (stereo not drawn) | inactive: 6.33%
47 | COc1ccc(NP(C)(=O)Oc2ccccc2OC)cc1 (stereo not drawn) | inactive: -2.72%
48 | CN(C)CCOC(=O)C(O)(c1ccccc1)C1CCCCC1 (stereo not drawn) | inactive: -0.86%
49 | CCN(CC)CCCOC(=O)C(O)(c1ccccc1)C1CCCCC1 (stereo not drawn) | inactive: 0.57%
50 | CCCCCOc1ccc(NP(C)(=O)Oc2ccc(Cl)cc2Cl)cc1 (stereo not drawn) | inactive: -30.8%
51 | CP(=O)(Nc1ccccc1)Oc1ccc(F)cc1 (stereo not drawn) | inactive: -2.01%
52 | COc1ccc(OP(C)(=O)Nc2ccc(SC(F)(F)F)cc2)cc1 (stereo not drawn) | inactive: -7.6%
53 | CCOC(=O)c1ccc(NP(C)(=O)Oc2ccc(F)cc2)cc1 (stereo not drawn) | inactive: 4.83%
54 | O=C(OCCN1CCN(CCOCc2ccccc2)CC1)C(O)(c1ccccc1)c1ccccc1 | inactive: -12.3%
55 | O=C(OC1CN2CCC1CC2)c1ccc([N+](=O)[O-])cc1 (stereo not drawn) | inactive: 3.69%
56 | COc1ccc2c(c1O)-c1c(O)c(OC)cc3c1[C@H](C2)[N+](C)(C)CC3.O=[N+]([O-])c1cc([N+](=O)[O-])c([O-])c([N+](=O)[O-])c1[O-] | inactive: -95.1%
57 | CC(C)c1ccc(OP(C)(=O)Nc2ccc(SC(F)(F)F)cc2)cc1 (stereo not drawn) | inactive: -30%
58 | CP(=O)(Nc1ccccc1F)Oc1ccccc1 (stereo not drawn) | inactive: 8.42%
59 | O=[N+]([O-])c1cc([N+](=O)[O-])c(Nc2ccccn2)c([N+](=O)[O-])c1 | inactive: -3.52%
60 | Cc1c(NP(C)(=O)Oc2ccc(C(C)C)cc2)c(=O)n(-c2ccccc2)n1C (stereo not drawn) | inactive: -18.8%
61 | CCc1ccc(OP(C)(=O)O)cc1 | inactive: -0.38%
62 | COc1ccccc1OP(C)(=O)Nc1ccc(C)cc1C (stereo not drawn) | inactive: -9.34%
63 | CP(=O)(Nc1ccccn1)Oc1ccccc1 (stereo not drawn) | inactive: -18.1%

Row | SMILES | inhibition
64 | COc1ccccc1OP(C)(=O)Nc1ccc(Br)cc1 (stereo not drawn) | inactive: 6.68%
65 | CN(C)CCOC(=O)C(O)(c1ccccc1)C1CCCC1 (stereo not drawn) | inactive: -15.9%
66 | COc1ccc(OP(C)(=O)Nc2ccccn2)cc1 (stereo not drawn) | inactive: -2.47%
67 | Cc1nc2ccc3ccccc3c2o1.O=[N+]([O-])c1cc([N+](=O)[O-])c(O)c([N+](=O)[O-])c1 | inactive: -37.7%
68 | CP(=O)(OCCOc1ccccc1)OCCOc1ccccc1 | inactive: -16.3%
69 | CP(=O)(Nc1ccc(Cl)cc1Cl)Oc1ccccc1 (stereo not drawn) | inactive: -14.4%
70 | Cc1cc(C)cc(OP(C)(=O)Nc2cccc(C(F)(F)F)c2)c1 (stereo not drawn) | inactive: -14%
71 | COc1ccc(OP(C)(=O)Nc2ccccc2Br)cc1 (stereo not drawn) | inactive: 5.08%
72 | COc1ccccc1OP(C)(=O)Nc1ccc(C)c(C)c1 (stereo not drawn) | inactive: -33.5%
73 | CP(=O)(OC12CC3CC(CC(C3)C1)C2)OC12CC3CC(CC(C3)C1)C2 | inactive: -11.6%
74 | CCOC(=O)c1ccc(NP(C)(=O)Oc2ccc(Cl)cc2)cc1 (stereo not drawn) | inactive: 4.47%
75 | CP(=O)(Nc1ccc(Cl)cc1)Oc1ccc(F)cc1 (stereo not drawn) | inactive: -8.18%
76 | CC(C)(C)c1ccc(OP(C)(=O)O)cc1 | inactive: -19.2%
77 | COc1ccccc1OP(C)(=O)Nc1ccccc1Br (stereo not drawn) | inactive: -7.97%
78 | CN(C)C(=O)c1c([N+](=O)[O-])cc([N+](=O)[O-])cc1[N+](=O)[O-] | inactive: -15.3%
79 | COc1ccc(OP(C)(=O)Nc2ccc(Br)cc2)cc1 (stereo not drawn) | inactive: -9.99%
80 | CCN(CC)CC(O)COC(=O)C(O)(c1ccccc1)C1CCCCC1 (stereo not drawn) | inactive: 0.87%
81 | CCc1ccc(OP(C)(=O)Nc2cccnc2)cc1 (stereo not drawn) | inactive: -20.6%
82 | CP(=O)(Oc1ccccc1)N1CCOC1=O (stereo not drawn) | inactive: -21.1%
83 | O=C(OCCCN1CCCC1)C(O)(c1ccccc1)C1CCCCC1 (stereo not drawn) | inactive: 6.43%

Source: PubChem BioAssay AID1021 (Emory University Molecular Libraries Screening Center, 2008)
